Assay results from ChEMBL document CHEMBL1141564, “Meriolins (3-(pyrimidin-4-yl)-7-azaindoles): synthesis, kinase inhibitory activity, cellular effects, and structure of a CDK2/cyclin A/meriolin complex” (J Med Chem, 2008).

Experiments:
KMS-11 = assay: cells; conditions: Homo sapiens, KMS-11, 48 h
SH-SY5Y = assay: cells; conditions: Homo sapiens, 48 h
[1] = target: Cyclin-dependent kinase 2/cyclin A (Homo sapiens, UniProt P24941); assay: Inhibition of human recombinant CDK2/cyclin A expressed in insect cells

IC50 (KMS-11): 40 nM
IC50 (SH-SY5Y): 38 nM
IC50 [1]: 5.1 nM
SMILES: CC(C)Oc1ccnc2[nH]cc(-c3ccnc(N)n3)c12 [MERIOLIN 6]
